Test results: US10399948B2, “Negative allosteric modulators of metabotropic glutamate receptor 3” (Vanderbilt University, priority 2015, dated 2019)

Chains of the proteins cited; added tags and fusions are not shown. Residues count along the entry.
UniProt P31421, 19-872: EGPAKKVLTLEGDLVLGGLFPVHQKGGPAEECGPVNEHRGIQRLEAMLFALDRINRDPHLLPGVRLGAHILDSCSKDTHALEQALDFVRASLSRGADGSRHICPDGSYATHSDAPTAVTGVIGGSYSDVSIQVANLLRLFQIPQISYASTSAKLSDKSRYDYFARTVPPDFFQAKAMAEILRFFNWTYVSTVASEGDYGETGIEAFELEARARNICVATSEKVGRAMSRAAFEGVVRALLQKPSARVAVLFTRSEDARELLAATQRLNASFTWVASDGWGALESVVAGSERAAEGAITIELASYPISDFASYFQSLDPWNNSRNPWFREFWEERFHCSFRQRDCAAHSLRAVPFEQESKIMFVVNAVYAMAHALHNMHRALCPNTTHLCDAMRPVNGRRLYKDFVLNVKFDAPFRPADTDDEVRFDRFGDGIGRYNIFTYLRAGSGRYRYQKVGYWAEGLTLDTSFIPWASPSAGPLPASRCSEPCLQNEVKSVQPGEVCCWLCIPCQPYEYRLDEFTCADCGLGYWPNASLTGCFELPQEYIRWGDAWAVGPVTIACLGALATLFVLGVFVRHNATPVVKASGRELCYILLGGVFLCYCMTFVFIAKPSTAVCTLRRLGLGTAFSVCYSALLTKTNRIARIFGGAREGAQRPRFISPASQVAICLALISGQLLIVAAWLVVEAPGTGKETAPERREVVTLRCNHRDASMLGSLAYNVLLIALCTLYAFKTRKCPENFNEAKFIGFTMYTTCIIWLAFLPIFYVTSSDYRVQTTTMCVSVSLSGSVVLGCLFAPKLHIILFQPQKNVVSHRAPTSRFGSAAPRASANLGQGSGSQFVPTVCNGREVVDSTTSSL

Biological target: rat mGlu2 (Rattus norvegicus (Rat), UniProt P31421)
Experiment: mGlu2 Ca2+ flux assay
Format: cell-based
Settings: NAM, glutamate EC80; >30,000 = no measurable activity
Description: Gα15 HEK293 cells stably expressing rat mGlu2 were plated in black-walled, clear-bottomed, poly-D-lysine coated 384-well plates in 20 μL of assay medium (DMEM containing 10% dialyzed FBS, 20 mM HEPES, and 1 mM sodium pyruvate) at a density of 12K cells/well. The cells were grown overnight at 37° C. in the presence of 5% CO2. The next day, medium was removed and the cells incubated with 20 μL of […] Fluo-4, AM prepared as a 2.3 mM stock in DMSO and mixed in a 1:1 ratio with 10% (w/v) pluronic acid F-127 and diluted in assay buffer (Hank's balanced salt solution, 20 mM HEPES, and 2.5 mM probenecid) for 45 minutes at 37° C. […]
Ca^2+ flux was measured using the Functional Drug Screening System (FDSS7000, Hamamatsu, Japan). After establishment of a fluorescence baseline for about 3 seconds, the compounds of the present invention were added to the cells, and the response in cells was measured. 2.3 minutes later an EC20 concentration of the mGlu2 receptor agonist glutamate was added to the cells, and the response of the cells was measured for 1.9 minutes; an EC80 concentration of agonist was added and readings taken for an additional 1.7 minutes. […] Calcium fluorescence measures were recorded as fold over basal fluorescence; raw data was then normalized to the maximal response to glutamate. […]

Compound `O=c1cc(OCCOc2ccccc2)ccn1-c1cc(F)cc(F)c1` [Compound 21, 1-(3,5-difluorophenyl)-4-(2-phenoxyethoxy)pyridin-2(1H)-one] has an IC50 of over 30 µM.
